# Data reported in patent US8460868B2, “Genetic markers for schizophrenia and bipolar disorder” (priority 2007, dated 2013).
# Tested on: patients with schizophrenia
# Assay: CATIE trial drug response (>20% decrease in PANSS Total Score) by HPCAL1/SV2C genotype
# Format: in vivo, human
# Conditions: for OR vs. Low: vs low scoring genotype(s)
# Method: The Clinical Antipsychotic Trials of Intervention Effectiveness (CATIE), a large federally funded clinical trial designed to assess the efficacy of antipsychotics in a real world setting, is a valuable resource for determining the role of genes in drug response (Stroup et al., Schizophr. Bull. 29:15-31 (2003); Lieberman et al., N. Engl. J. […] As part of the CATIE trial SNP genotyping was performed for roughly half of the trial participants (Sullivan et al., Mol. Psychiatry 13:570-584 (2008)). When combined with clinical drug response data, the genotyping data make possible a reduction to practice for the current invention as it relates to pharmacogenomic applications. The design of the CATIE study has been described in detail by others (Stroup et al., Schizophr. Bull. 29:15-31 (2003); Lieberman et al., N. Engl. J. […] A total of 738 subjects consented to provide DNA for genetic study. Details regarding SNP genotyping and quality control have been recently published (Sullivan et al., Mol. Psychiatry 13:570-584 (2008)). Genotype and phenotype data for the CATIE trial were made available to qualified researchers through The NIMH Center for Collaborative Genetic Studies on Mental Disorders. For reduction to practice, we evaluated data for 417 patients with schizophrenia self reported as having exclusively European ancestry. This same patient population was described in a recent study by Sullivan and coworkers, which confirmed that there is no hidden stratification in the sample (Sullivan et al., Mol. Psychiatry 13:570-584 (2008)). […] Golden Helix, Bozeman, Mont.). To generate a P value, HelixTree calculates analysis of deviance (a likelihood ratio statistic) that compares the observed contingency table vs. an expected contingency table created with all the possible variations of the genetic model. […] The standard FDA registration trial definition of response of >20% decrease in Positive and Negative Syndrome Scale (PANSS Total Score) was used to assign subjects to a response category. […] Bull. 29:73-80 (2003)). […] The tables report odds ratios relative to the baseline values (sample not segmented by genotype) and relative to values for the low scoring, mutually exclusive genotype(s).
Compound,OR vs. Low (SV2C rs4610441 genotype C/C (C)),OR vs. Low (SV2C rs10474464 genotype C/C (C)),"OR vs. Low (SV2C rs4704297 genotype C/C, C/G (C))","OR vs. baseline (SV2C rs4704297 genotype C/C, C/G (C), vs sample not segmented by genotype)"
OCCOCCN1CCN(C2=Nc3ccccc3Sc3ccccc32)CC1 [quetiapine],4.06,4.06,,
Cc1nc2n(c(=O)c1CCN1CCC(c3noc4cc(F)ccc34)CC1)CCCC2 [risperidone],,,3.49,1.39
